Laboratory results: patent US20170037117A1, “COMPOSITIONS AND METHODS FOR TREATING METABOLIC DISORDERS” (Salk Institute for Biological Studies, priority 2014, published 2017)

Legend:
[1] = test system: G1 Fab binding to human α-CGRP on the chip; experiment: Epitope mapping of antibody G1 by peptide competition using Biacore; conditions: 10 uM peptide in 50 nM G1 Fab (2000:1 mol peptide/Fab); FIG. 6
Description: N-biotinylated human α-CGRP was captured on SA sensor chip. […] Y axis represents percentage of binding blocked by the presence of the competing peptide compared with the binding in the absence of the competing peptide.
To determine the epitope on human α-CGRP that is recognized by antibody G1, Biacore assays described above were used. Human α-CGRP was purchased as an N-biotinylated version to enable its high-affinity capture via SA sensor chips. […] All these peptides are amidated at the C-terminus.

[2] = test system: MIN6 cells; experiment: Insulin secretion assay of mouse insulinoma cells (MIN6) upon glucose stimulation; type: cell-based; conditions: 16.8 mM glucose, 100 nM to 500 nM peptide, FIGS. 15A-C, 16A
Experimental: FIGS. 15A-15C: Insulin secretion assay of mouse insulinoma cells (MIN6) upon 16.8 mM glucose stimulation. Cells were incubated with 0.1-0.5 μM synthetic peptides for FIG. 15A: rat CGRPα, FIG. 15B: rat CGRPβ and FIG. 15C: rat Substance P, n=4, means±S.E.M, **p<0.01, *p<0.05, Student's t test. FIG. 15D: Serum levels of CGRP measured by ELISA in blood samples from WT and TRPV1 mutants at 3 and 24 months, n=7, means±S.E.M. a, ns and b, p<0.05. FIG. 15E: Respiratory exchange ratio (RER) analysis and oxygen consumption FIG. 15F: of 23 months old male WT animals treated with CGRP8-37 or vehicle control, n=10, means±S.E.M.,**p<0.01, *p<0.05, Student's t test.
FIGS. 16A-16C illustrate insulin secretion and inflammation of the TRPV1 mutant mice. FIG. 16A: Insulin secretion assay of mouse insulinoma cells (MIN6) upon 16.8 mM glucose stimulation with 0.1-0.5 μM synthetic human CGRPα. FIG. 16B: Insulin secretion assay (MIN6) upon 16.8 mM glucose and exendin 4 stimulation. Cells were incubated with 0.1-0.5 μM synthetic peptides for h CGRPα, rat CGRPβ and rat Substance P, n=4, means±S.E.M, **p<0.01, *p<0.05, Student's t test. FIG. 16C: qPCR analysis of chemokines and pro-inflammatory genes at 24 months in brain, quadriceps muscle, gonadal fat and pancreas at 24 months (n=5, means±SEM, n.s., Student's t test). […]

percentage of binding of G1 Fab to human α-CGRP blocked by competing peptide [1]: 100%
Substance: 1-37 (WT): human α-CGRP 1-37, SEQ ID NO: 15, ACDTATCVTHRLAGLLSRSGGVVKNNFVPTNVGSKAF, C-terminally amidated
effect on glucose-stimulated insulin release [2]: significant blockade of the insulin response, albeit to a lesser extent
